Experimental data published in US20210337802A1, “COMPOSITION AND PROCESS FOR RECONDITIONING RESPIRATORS AND OTHER PERSONAL PROTECTIVE EQUIPMENT” (Tygrus, LLC, priority 2020, published 2021).

Assay: Conductivity of diluted samples (EPA method 120.1)
Type: physicochemical
Settings: samples diluted with de-ionized water; Example materials at 1% by volume in water
Description: To further evaluate the materials prepared in Examples I and II, samples of the materials are diluted with deionized water to provide material that contains 1% by volume of the respective material in water.
In order to test for conductivity the samples are each diluted with de-ionized water for analysis. The testing is completed using a Mettler Toledo Seven Excellence Meter with a conductivity probe following EPA method 120.1.

O=S(=O)(O)O [Dilute sulfuric acid, sulfuric acid, reference compound]
Conductivity: 556 mS/cm
